The species entered for one series is Rattus norvegicus. Put plainly: Metabolic stability in rat hepatocytes assessed as compound remaining after 2 hrs.
For series [1], the species on record is Homo sapiens. Put plainly: Selectivity ratio of IC50 for human cathepsin S to IC50 for humanized rabbit cathepsin K.
Series [2] is filed under the species Homo sapiens. Kind of series: Selectivity ratio of IC50 for human cathepsin B to IC50 for humanized rabbit cathepsin K.
For series [3], the species on record is Homo sapiens. Put plainly: Selectivity ratio of IC50 for human cathepsin L to IC50 for humanized rabbit cathepsin K.

The record followed here is ChEMBL document CHEMBL1143315, “Investigation of ketone warheads as alternatives to the nitrile for preparation of potent and selective cathepsin K inhibitors” (Bioorg Med Chem Lett, 2009).

Each structure is given as a SMILES string.

A word on the share remaining: it is the share of the starting amount still present when the sample was taken.

`CC(C)(F)C[C@H](N[C@@H](c1ccc(-c2ccc(S(C)(=O)=O)cc2)cc1)C(F)(F)F)C(=O)NC1CN(S(=O)(=O)c2ccccn2)CC1=O` (some centres not stated): the amount remaining at 2 h in the series listed under Rattus norvegicus was 15%. Moreover, the Ratio IC50 is 27 in the series listed under Homo sapiens [1], 118 in the series listed under Homo sapiens [2] and 118 in the series listed under Homo sapiens [3].
On to `CCOC(=O)N1CC(=O)C(NC(=O)[C@H](CC(C)(C)F)N[C@@H](c2ccc(-c3ccc(S(C)(=O)=O)cc3)cc2)C(F)(F)F)C1` (some centres not stated), for which the amount remaining at 2 h in the series listed under Rattus norvegicus turned out to be 20%. In addition, the Ratio IC50 in the series filed under Homo sapiens [1] was 185; in the series filed under Homo sapiens [2], 215; in the series listed under Homo sapiens [3], 861.
As to `COC(=O)N1CC(=O)C(NC(=O)[C@H](CC(C)(C)F)N[C@@H](c2ccc(-c3ccc(S(C)(=O)=O)cc3)cc2)C(F)(F)F)C1` (some centres not stated), the share remaining at 2 h in the series listed under Rattus norvegicus was determined as 11%. Further, the Ratio IC50 in the series filed under Homo sapiens [1] stood at 304; in the series listed under Homo sapiens [2], 637; in the series listed under Homo sapiens [3] it was 604.
